Source: ChEMBL document CHEMBL2010677, “Anti-inflammatory and PPAR transactivational effects of secondary metabolites from the roots of Asarum sieboldii” (Bioorg Med Chem Lett, 2012)

The molecules below were run on HepG2 (assay: Transactivation of PPAR expressed in HepG2 cells after 20 hrs by luminescence assay).
Assay type: cell-based

**Q.** For COc1cc([C@H]2OC[C@@H]3[C@H]2CO[C@H]3c2ccc3c(c2)OCO3)ccc1O [PLUVIATILOL], which Activity is on record?
**A.** The Activity was “Dose-dependent effect”.

**Q.** Which Activity does the source give for COc1cc([C@@H]2OC[C@@H]3[C@H]2CO[C@H]3c2ccc3c(c2)OCO3)ccc1O [PIPERITOL] here?
**A.** Its Activity is “Dose-dependent effect”.

**Q.** How did the Activity turn out when COc1ccc([C@@H](O)[C@H](O)CO)cc1OC was run?
**A.** Its Activity is “Dose-dependent effect”.

**Q.** Which Activity does the source give for CC(C)(O)C1=C[C@@H](O)[C@@](C)(O)CC1 here?
**A.** Its Activity is “Dose-dependent effect”.

**Q.** C/C=C\CC/C=C/C=C/C(=O)NCC(C)C was tested. Which Activity did it give?
**A.** The Activity was “Dose-dependent effect”.

**Q.** COc1cc([C@H]2OC[C@H]3[C@@H]2CO[C@H]3c2ccc3c(c2)OCO3)cc(OC)c1O was tested. Which Activity did it give?
**A.** The Activity was “Dose-dependent effect”.
